This note sets out measurements from BindingDB's records for US10829480.

By UniProt entry, the sequences of proteins in these tests, tags left out.
UniProt P41146, whole entry: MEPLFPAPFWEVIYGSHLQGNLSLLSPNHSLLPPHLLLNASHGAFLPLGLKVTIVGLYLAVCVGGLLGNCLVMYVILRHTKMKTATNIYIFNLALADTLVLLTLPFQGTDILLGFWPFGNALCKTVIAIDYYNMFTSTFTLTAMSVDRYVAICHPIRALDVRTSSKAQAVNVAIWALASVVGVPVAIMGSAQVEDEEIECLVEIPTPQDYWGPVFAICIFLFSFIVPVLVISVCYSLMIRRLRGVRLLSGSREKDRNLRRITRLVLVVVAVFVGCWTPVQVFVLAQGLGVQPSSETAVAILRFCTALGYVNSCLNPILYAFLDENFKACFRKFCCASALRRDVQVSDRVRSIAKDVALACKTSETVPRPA

This experiment concerns the target Nociceptin receptor (Homo sapiens, UniProt P41146). Put plainly: ASSAY_NAME: Receptor Binding Assay DESCRIPTION: Mu-Opioid Peptide (hMOP): The hMOP receptor binding assay was performed as homogeneous SPA-assay (scintillation proximity assay) using the assay buffer 50 mM TRIS-HCl (pH 7.4) supplemented with 0.052 mg/ml bovine serum albumin (Sigma-Aldrich Co. St. Louis. Mo.). The final assay volume (250 μl/well) included 1 nM of [N-allyl-2.3-3H]naloxone as li.
For `CN(C)[C@]1(c2ccccc2)CC[C@]2(CC1)CN(Cc1cccc(S(C)(=O)=O)c1)C(=O)N2CC1CCC1`, the affinity, expressed as Ki, was 0.8 nM. For the compound `COc1ccc(CN2C[C@]3(CC[C@](c4ccccc4)(N(C)C)CC3)N(CC3CCCO3)C2=O)cc1` (stereo partly drawn), the affinity, expressed as Ki, was 4 nM. This Ki is about 5-fold higher than that of the compound before. For the compound `CN(C)[C@]1(c2ccccc2)CC[C@]2(CC1)CN(Cc1cccc(C3CC3)c1)C(=O)N2`, the Ki (as a rule, the equilibrium dissociation constant of an inhibitor or competing ligand from its target) came to 90.5 nM. Against the preceding compound, the Ki is about 23-fold higher.
